# Binding of CDR-mutated scFvs to a peptide of the spike HR2 region

Antigen: PDVDLGDISGINAS, a 14-residue peptide of the SARS-CoV-2 spike HR2 region.

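The parent was found by panning a naive human phage display library on the peptide. Variants in AAYL52 differ from the parent at up to three CDR positions; double and triple changes were sampled at random. AlphaSeq pools MATa yeast showing the antibodies with MATalpha yeast showing the peptide. After mating in shaken culture at 30 °C for 16 h, diploids were selected and their barcode pairs sequenced. Read counts were normalised to the haploid input and turned into Kd by a linear fit to BCL2-family pairs of known affinity, for each replicate. There are three technical replicates.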

Parent: Ab-95, a human scFv built as VH, the linker GGGGSGGGGSGGGGS, VL. Only the CDRs of the light chain vary.
VH: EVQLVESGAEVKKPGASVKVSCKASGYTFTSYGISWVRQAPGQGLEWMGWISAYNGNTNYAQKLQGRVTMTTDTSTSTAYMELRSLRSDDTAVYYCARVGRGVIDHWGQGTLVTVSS
VL: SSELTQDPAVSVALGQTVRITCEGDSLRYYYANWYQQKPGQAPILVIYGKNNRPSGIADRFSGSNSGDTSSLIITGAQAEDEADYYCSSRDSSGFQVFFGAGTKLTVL

Substitutions are numbered in sequence along the VL above, starting at 1 (not Kabat). Every variant below is changed at R90 of the VL (sequential numbering). The read-out is the apparent dissociation constant on a log10 scale (nM): the lower, the stronger. Averages over replicates are reported, and they cover detected replicates only. "nd" means that the variant was in the library but no mating with the target was seen in that replicate; the authors take this as a sign of poor binding, and no number exists. For reference, the parent read 2.31 as the reference entry and 2.25 as a member of this library. Three control strains display no target. For library AAYL52, 28% of the pairings with them gave a signal, with a median of 3.91 and one signal in twenty below 2.90, so weak values seen in few replicates may be background.

The variant E23Y+R90D+V97E gave nd, nd, nd.
The variant R90V+G94D gave nd, nd, nd.
The variant S55P+R90Y gave 2.87, 2.45, 3.25 (mean 2.86).
The variant R28V+Y29F+R90P gave 3.42, nd, nd.
The variant Y31T+K50L+R90E gave 5.65, 4.02, nd (mean 4.84).
The variant G24R+S26R+R90M gave 4.41, 3.15, nd (mean 3.78).
The variant D25I+R90F gave 2.72, 3.21, 3.33 (mean 3.09).
The variant E23S+P54F+R90G gave 2.42, 2.50, 2.17 (mean 2.36).
The variant Y29A+S88G+R90A gave 2.07, 1.92, 2.06 (mean 2.01).
The variant N52L+R90D+D91N gave nd, 3.42, nd.
The variant Y30H+R90W+D91Y gave 1.45, 1.34, 1.15 (mean 1.31).
The variant Y31I+R90E+S92F gave nd, nd, 3.65.
The variant Y29F+R90T+G94A gave 2.88, 3.31, 2.89 (mean 3.03).
The variant G24C+R90A+G94S gave 3.23, 3.20, 3.13 (mean 3.19).
The variant Y29R+R90E+D91I gave 2.86, 3.23, 2.71 (mean 2.94).
The variant R28N+R90T+F95H gave nd, nd, 4.06.
The variant R28L+N51G+R90Y gave 2.75, 2.15, 3.35 (mean 2.75).
The variant N33P+R90I+V97D gave 5.30, 5.84, nd (mean 5.57).
The variant R90Q+S93F+F95S gave 2.24, 2.19, 1.67 (mean 2.03).
The variant A32R+S88W+R90W gave 4.70, 5.32, nd (mean 5.01).
The variant S55D+R90N+S92N gave nd, nd, nd.
The variant A32W+K50C+R90H gave 3.83, 3.65, nd (mean 3.74).
The variant A32I+N51G+R90A gave 3.73, 4.30, 4.16 (mean 4.06).
The variant S55L+R90F+F98T gave 5.16, 5.47, nd (mean 5.31).
The variant A32E+N51D+R90T gave 3.99, nd, 3.88 (mean 3.94).
The variant G49A+R90G+G94S gave 4.08, 4.16, nd (mean 4.12).
The variant R90I+G94E gave 4.22, nd, nd.
The variant Y29D+R90E+S93G gave nd, nd, nd.
The variant N51R+R53N+R90P gave nd, 6.18, 4.30 (mean 5.24).
The variant P54W+R90P+Q96A gave 3.87, 4.03, 4.61 (mean 4.17).
The variant R90D gave 3.34, nd, 2.51 (mean 2.93).
The variant Y30A+G49K+R90Q gave 2.76, 4.42, nd (mean 3.59).
The variant R90I+S92Y+V97T gave 1.89, 2.37, nd (mean 2.13).
The variant E23T+S55R+R90K gave 3.07, nd, nd.
The variant R90M+D91K+Q96A gave nd, 3.05, 2.83 (mean 2.94).
The variant N52G+S89N+R90G gave 4.91, nd, nd.
The variant G49D+R90D gave nd, 2.99, 3.02 (mean 3.01).
The variant Y31Q+N52I+R90D gave 3.34, 3.58, 2.52 (mean 3.15).
The variant R53Y+R90E+V97S gave 4.12, 3.87, 3.39 (mean 3.79).
The variant L27C+R90N+F95Q gave 3.55, nd, nd.
The variant K50M+R90Q+V97I gave 4.05, nd, 3.65 (mean 3.85).

The first 4 entries again:

{"changes": "E23Y+R90D+V97E", "log10 Kd, replicates": "nd, nd, nd", "mean, log10 nM": "nd"}
{"changes": "R90V+G94D", "log10 Kd, replicates": "nd, nd, nd", "mean, log10 nM": "nd"}
{"changes": "S55P+R90Y", "log10 Kd, replicates": "2.87, 2.45, 3.25", "mean, log10 nM": "2.86"}
{"changes": "R28V+Y29F+R90P", "log10 Kd, replicates": "3.42, nd, nd", "mean, log10 nM": "3.42"}

Reference: Engelhart et al. 2022, doi:10.1038/s41597-022-01779-4. File: FLAb, binding data.